Here are results for 33 compounds from PubChem BioAssay AID640 (Columbia University Molecular Screening Center, 2007).

Chains of the proteins cited; added tags and fusions are not shown.
UniProt Q9Y2R2, whole entry, looked up: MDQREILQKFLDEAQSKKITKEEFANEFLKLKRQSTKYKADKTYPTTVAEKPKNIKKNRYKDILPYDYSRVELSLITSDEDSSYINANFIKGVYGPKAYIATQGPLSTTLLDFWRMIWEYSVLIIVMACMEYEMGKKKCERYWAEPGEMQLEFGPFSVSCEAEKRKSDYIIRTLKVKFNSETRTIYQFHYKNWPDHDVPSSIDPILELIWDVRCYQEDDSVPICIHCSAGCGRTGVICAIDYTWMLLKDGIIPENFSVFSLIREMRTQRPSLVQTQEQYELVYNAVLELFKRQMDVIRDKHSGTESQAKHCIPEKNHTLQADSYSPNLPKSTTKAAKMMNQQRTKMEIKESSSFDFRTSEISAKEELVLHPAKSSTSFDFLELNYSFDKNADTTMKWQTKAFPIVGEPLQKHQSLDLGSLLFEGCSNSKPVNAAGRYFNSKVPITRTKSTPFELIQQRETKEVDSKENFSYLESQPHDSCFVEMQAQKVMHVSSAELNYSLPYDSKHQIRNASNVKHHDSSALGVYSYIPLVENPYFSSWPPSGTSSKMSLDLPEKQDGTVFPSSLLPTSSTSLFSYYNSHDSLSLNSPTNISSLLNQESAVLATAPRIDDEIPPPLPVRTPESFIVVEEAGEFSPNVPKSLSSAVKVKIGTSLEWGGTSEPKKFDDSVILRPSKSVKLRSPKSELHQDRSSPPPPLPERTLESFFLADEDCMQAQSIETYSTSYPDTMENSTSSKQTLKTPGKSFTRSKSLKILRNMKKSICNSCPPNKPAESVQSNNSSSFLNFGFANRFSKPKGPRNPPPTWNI

This is a selection; strong and weak results do not stand in their true shares. Active and inactive are the calls of the source.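 Rule for the calls: active = inhibition at 2 µM at or above a set limit, the screen mean plus 3 SD (cut at about 24% in these data); inactive = the rest.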

This assay has as its target Tyrosine-protein phosphatase non-receptor type 22 (Homo sapiens) (UniProt Q9Y2R2). Kind of assay: PTPN22 phosphatase inhibitors, primary screen, biochemical, DiFMUP fluorescence, 2 µM (AID 640).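 Note: 0% = DMSO with enzyme and 100% = enzyme fully blocked by orthovanadate.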 The following applies: recombinant LYP catalytic domain, at 2 µM, stronger effect = higher value.
For the compound `CC1(CBr)Cn2c(nc3ccccc3c2=O)S1` (stereo not drawn), the inhibition was inactive: -4.6%. `Clc1n[nH]nc1-c1nn[nH][15n]1`: the inhibition is inactive: 3.2%. For the compound `O=P1(Nc2ccccn2)COc2ccccc2OC1`, the inhibition was inactive: -2.3%. Take `Cc1ccc(OCC(=O)OC2CN3CCC2CC3)cc1` (stereo not drawn): the inhibition was inactive: -3.6%. With `O=P1(Nc2ccc(Br)cn2)COc2ccccc2OC1`, the inhibition was inactive: -8.4%.

`O=P1(Nc2ncccn2)COc2ccccc2OC1`: the inhibition was inactive: 8%. For `Cc1nn(-c2ccccc2)c2c1P(=O)(N1CCOCC1)N(C)C(c1ccccc1)=N2` (stereo not drawn) the value was inactive: -7%; for `O=[N+]([O-])c1ccc2c(c1)nnn2O`, inactive: -0.7%. For the compound `CCOP1(=S)c2c(C)nn(CCC#N)c2N=C(c2ccc(F)cc2)N1C` (stereo not drawn), the inhibition was inactive: 4.2%. Regarding `CCOP1(=S)c2c(C)nn(CCC#N)c2N=C(c2ccccc2F)N1C` (stereo not drawn), the inhibition is inactive: 4.3%.

As for `Cc1cccc(OCC(=O)OC2CN3CCC2CC3)c1` (stereo not drawn), the inhibition was inactive: -1.5%. For `O=C(OC1CN2CCC1CC2)C12CC3CC(CC(C3)C1)C2` (stereo not drawn) the value was inactive: 8.5%.

With `CCN(CC)C(=S)SC(NC=O)C(Cl)(Cl)Cl` (stereo not drawn), the inhibition is inactive: -1.2%.

Consider `ClCCSc1nnc(-c2cccnc2)o1`, for which the inhibition was inactive: -5.6%. With `CCC(C)N(CC(C)C)C(=S)SC(NC(C)=O)C(Cl)(Cl)Cl` (stereo not drawn), the inhibition was inactive: -5.4%. `O=C(COc1ccccc1)OC1CN2CCC1CC2` (stereo not drawn): the inhibition was inactive: 0.7%.

Turning to `COP1(=S)c2c(C)nn(CCC#N)c2N=C(c2ccc(F)cc2)N1C` (stereo not drawn), the inhibition was inactive: -3.2%. For `CC1CCN(C(=O)Oc2c(Cl)cc(Cl)c3cccnc23)CC1`, the inhibition is inactive: 5.2%. In the case of `O=[N+]([O-])c1cccc2n[nH]nc12`, the inhibition was inactive: -3.1%.

As for `CC(=O)N1C2C3N(C(C)=O)C1C1N(C(C)=O)C(C(N1C(C)=O)N3C(C)=O)N2C(C)=O`, the inhibition was inactive: 3.4%. As to `CCc1nc2c(n1)c1c(non1O)c1c2no[n+]1[O-]`, the inhibition was inactive: -11.1%. For `CCOP(=O)(Nc1ccccc1)OCC`, the inhibition is inactive: 5.4%. For the compound `CC(C)CC(=O)NC(Sc1ccc(Cl)cc1)C(Cl)(Cl)Cl` (stereo not drawn), the inhibition is inactive: -3.2%.

In the case of `Cc1c2non([O-])c-2c(C)[n+](=O)[n+]1[O-]`, the inhibition was inactive: -21%. For `Oc1ccccc1CNc1ccccn1` the value was inactive: 11.9%; for `CN1CCCC(OC(=O)C(c2ccccc2)c2ccccc2)C1` (stereo not drawn), inactive: -14.3%; for `O=P1(Nc2nc3ccc(Cl)cc3s2)COc2ccccc2O1` (stereo not drawn), inactive: -12.1%.

Take `COC(=O)c1cc2c(s1)N=C(c1ccccc1)N(C)P2(=O)N1CCOCC1` (stereo not drawn): the inhibition was inactive: -1%. For `CCC(=O)N1C2C3N(C(=O)CC)C1C1N(C(=O)CC)C(C(N1C(=O)CC)N3C(=O)CC)N2C(=O)CC`, the inhibition is inactive: -11.3%. For the compound `CCOC(=O)NC(Sc1ccccc1)C(Cl)(Cl)Cl` (stereo not drawn), the inhibition was inactive: 8.2%. As for `O=C(OC1CN2CCC1CC2)c1cccc(Cl)c1` (stereo not drawn), the inhibition was inactive: -12.1%. `c1nnnn1CCn1cnnn1`: the inhibition was inactive: -9.6%.

For the compound `O=P(Nc1nccs1)(c1ccccc1)c1ccccc1`, the inhibition is inactive: -6.5%.
